# Patent US9434727B2, “Substituted 4-phenylpiperidines, their preparation and use” (THE TRUSTEES OF COLUMBIA UNIVERSITY IN THE CITY OF NEW YORK, priority 2014, dated 2016)
# Assays:
# [1] = molecular target: RBP4 (Homo sapiens (Human), UniProt P02753); assay: Scintillation proximity (SPA) RBP4 binding assay; settings: 10 nM 3H-Retinol, 50 nM biotinylated RBP4
# Method: Scintillation Proximity RBP4 Binding Assay
# Untagged human RBP4 purified from urine of tubular proteinuria patients was purchased from Fitzgerald Industries International. It was biotinylated using the EZ-Link Sulfo-NHS-LC-Biotinylation kit from Pierce following the manufacturer's recommendations. Binding experiments were performed in 96-well plates (OptiPlate, PerkinElmer) in a final assay volume of 100 μl per well in SPA buffer (IX PBS, pH 7.4, 1 mM EDTA, 0.1% BSA, 0.5% CHAPS). The reaction mix contained 10 nM ^3H-Retinol (48.7 Ci/mmol; PerkinElmer), 0.3 mg/well Streptavidin-PVT beads, 50 nM biotinylated RBP4 and a test compound. Nonspecific binding was determined in the presence of 20 μM of unlabeled retinol. The reaction mix was assembled in the dark under dim red light. The plates were sealed with clear tape (TopSeal-A: 96-well microplate, PerkinElmer), wrapped in the aluminum foil, and allowed to equilibrate 6 hours at room temperature followed by overnight incubation at +4° C. Radiocounts were measured using a TopCount NXT counter (Packard Instrument Company).
# [2] = molecular target: RBP4-TTR interaction (Homo sapiens (Human), UniProt P02753); assay: TR-FRET (HTRF) assay for retinol-induced RBP4-TTR interaction; format: biochemical; settings: in the presence of 1 μM retinol; read-out: HTRF assay for antagonists of RBP4-TTR interaction: IC50
# Method: Bacterially expressed MBP-RBP4 and untagged TTR were used in this assay. […] Human untagged TTR was purchased from Calbiochem. […] HTRF assay was performed in white low volume 384 well plates (Greiner-Bio) in a final assay volume of 16 μl per well. […] All reactions were assembled in the dark under dim red light and incubated overnight at +4° C. wrapped in aluminum foil. […] The TR-FRET signal was expressed as the ratio of fluorescence intensity: Flu665/Flu620×10,000.
structure (smiles),measurement,setting,value
"O=C(c1n[nH]c2c1CCN(CC(F)(F)F)C2)N1CCC(c2ccc(F)c(F)c2C(F)(F)F)CC1 [Compound 125, (4-(3,4-Difluoro-2-(trifluoromethyl)phenyl)piperidin-1-yl)(6-(2,2,2-trifluoroethyl)-4,5,6,7-tetrahydro-1H-pyrazolo[3,4-c]pyridin-3-yl)methanone]",IC50,[1],15 nM
same,IC50,[2],62.1 nM
